How the values were obtained:
MAO-B [1] = molecular target: T1, MAO-B (Mus musculus, UniProt Q8BW75); assay: MAO-B activity in forebrain mitochondrial fractions of treated mice; assay type: biochemical; details: four doses at 2-h intervals: deprenyl 10 mg/kg i.p. or 7-NI 50 mg/kg s.c.; vehicle 5.79±0.44
T1 construct: Crude mitochondrial preparations were obtain from the forebrains; from tissue; host or cells: mouse forebrain, crude mitochondrial fraction (P2 pellet on a discontinuous Ficoll gradient)

The chains behind the UniProt entries cited, without tags or fusion partners.
UniProt Q8BW75, whole entry: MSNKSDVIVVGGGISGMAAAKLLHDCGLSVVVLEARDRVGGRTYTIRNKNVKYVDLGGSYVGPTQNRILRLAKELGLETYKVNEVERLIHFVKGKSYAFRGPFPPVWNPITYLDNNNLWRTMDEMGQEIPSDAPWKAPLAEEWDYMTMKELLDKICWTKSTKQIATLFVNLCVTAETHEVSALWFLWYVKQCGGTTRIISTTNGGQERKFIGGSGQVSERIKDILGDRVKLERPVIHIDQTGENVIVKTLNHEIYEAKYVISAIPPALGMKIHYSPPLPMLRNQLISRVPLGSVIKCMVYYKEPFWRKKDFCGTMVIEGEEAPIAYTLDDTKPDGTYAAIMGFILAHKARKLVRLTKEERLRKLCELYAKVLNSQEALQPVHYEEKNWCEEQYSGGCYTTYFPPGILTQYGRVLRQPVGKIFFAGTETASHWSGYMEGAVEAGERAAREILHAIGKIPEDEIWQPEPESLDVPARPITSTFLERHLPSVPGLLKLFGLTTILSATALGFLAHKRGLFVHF
UniProt Q61327, whole entry: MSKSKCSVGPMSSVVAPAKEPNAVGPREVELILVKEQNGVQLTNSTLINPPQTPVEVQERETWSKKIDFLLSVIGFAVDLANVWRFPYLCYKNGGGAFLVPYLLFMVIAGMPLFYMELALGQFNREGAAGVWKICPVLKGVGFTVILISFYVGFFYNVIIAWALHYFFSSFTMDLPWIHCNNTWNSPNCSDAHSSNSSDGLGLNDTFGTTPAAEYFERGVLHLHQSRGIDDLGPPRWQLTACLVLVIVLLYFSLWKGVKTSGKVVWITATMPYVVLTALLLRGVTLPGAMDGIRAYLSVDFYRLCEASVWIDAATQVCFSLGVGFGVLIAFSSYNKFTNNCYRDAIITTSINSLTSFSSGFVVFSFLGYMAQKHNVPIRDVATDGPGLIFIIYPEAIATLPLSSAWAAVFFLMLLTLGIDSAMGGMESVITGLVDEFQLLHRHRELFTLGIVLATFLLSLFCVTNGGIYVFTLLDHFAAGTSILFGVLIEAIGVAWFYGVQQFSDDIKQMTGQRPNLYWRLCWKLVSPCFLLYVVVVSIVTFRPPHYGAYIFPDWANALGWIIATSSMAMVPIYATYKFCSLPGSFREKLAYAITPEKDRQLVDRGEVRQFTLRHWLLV

MAO-B [2] = molecular target: T1, MAO-B; assay: MAO-B activity in vitro, mitochondrial fraction of mouse forebrain; assay type: biochemical
dopamine transporter = dopamine transporter (Mus musculus, UniProt Q61327)

C#CCN(C)C(C)Cc1ccccc1 (stereo not drawn) [deprenyl, reference compound]
MAO-B activity in forebrain mitochondrial fraction after in vivo treatment (MAO-B [1]): 0.22±0.22 nmol/min/mg of protein
concentration giving complete inhibition of MAO-B (MAO-B [2]): 1.2 µM

OC1(c2ccc(Cl)cc2)c2ccccc2C2=NCCN21 (stereo not drawn) [mazindol]
Ki (dopamine transporter): 50 nM
